In ChEMBL document CHEMBL1135387, “Synthesis and kinase inhibitory activity of 3'-(S)-epi-K-252a” (Bioorg Med Chem Lett, 2002) one finds IC50 data, which are given here for one molecule.

The chains behind the UniProt entries cited, without tags or fusion partners.
UniProt Q15746, whole entry: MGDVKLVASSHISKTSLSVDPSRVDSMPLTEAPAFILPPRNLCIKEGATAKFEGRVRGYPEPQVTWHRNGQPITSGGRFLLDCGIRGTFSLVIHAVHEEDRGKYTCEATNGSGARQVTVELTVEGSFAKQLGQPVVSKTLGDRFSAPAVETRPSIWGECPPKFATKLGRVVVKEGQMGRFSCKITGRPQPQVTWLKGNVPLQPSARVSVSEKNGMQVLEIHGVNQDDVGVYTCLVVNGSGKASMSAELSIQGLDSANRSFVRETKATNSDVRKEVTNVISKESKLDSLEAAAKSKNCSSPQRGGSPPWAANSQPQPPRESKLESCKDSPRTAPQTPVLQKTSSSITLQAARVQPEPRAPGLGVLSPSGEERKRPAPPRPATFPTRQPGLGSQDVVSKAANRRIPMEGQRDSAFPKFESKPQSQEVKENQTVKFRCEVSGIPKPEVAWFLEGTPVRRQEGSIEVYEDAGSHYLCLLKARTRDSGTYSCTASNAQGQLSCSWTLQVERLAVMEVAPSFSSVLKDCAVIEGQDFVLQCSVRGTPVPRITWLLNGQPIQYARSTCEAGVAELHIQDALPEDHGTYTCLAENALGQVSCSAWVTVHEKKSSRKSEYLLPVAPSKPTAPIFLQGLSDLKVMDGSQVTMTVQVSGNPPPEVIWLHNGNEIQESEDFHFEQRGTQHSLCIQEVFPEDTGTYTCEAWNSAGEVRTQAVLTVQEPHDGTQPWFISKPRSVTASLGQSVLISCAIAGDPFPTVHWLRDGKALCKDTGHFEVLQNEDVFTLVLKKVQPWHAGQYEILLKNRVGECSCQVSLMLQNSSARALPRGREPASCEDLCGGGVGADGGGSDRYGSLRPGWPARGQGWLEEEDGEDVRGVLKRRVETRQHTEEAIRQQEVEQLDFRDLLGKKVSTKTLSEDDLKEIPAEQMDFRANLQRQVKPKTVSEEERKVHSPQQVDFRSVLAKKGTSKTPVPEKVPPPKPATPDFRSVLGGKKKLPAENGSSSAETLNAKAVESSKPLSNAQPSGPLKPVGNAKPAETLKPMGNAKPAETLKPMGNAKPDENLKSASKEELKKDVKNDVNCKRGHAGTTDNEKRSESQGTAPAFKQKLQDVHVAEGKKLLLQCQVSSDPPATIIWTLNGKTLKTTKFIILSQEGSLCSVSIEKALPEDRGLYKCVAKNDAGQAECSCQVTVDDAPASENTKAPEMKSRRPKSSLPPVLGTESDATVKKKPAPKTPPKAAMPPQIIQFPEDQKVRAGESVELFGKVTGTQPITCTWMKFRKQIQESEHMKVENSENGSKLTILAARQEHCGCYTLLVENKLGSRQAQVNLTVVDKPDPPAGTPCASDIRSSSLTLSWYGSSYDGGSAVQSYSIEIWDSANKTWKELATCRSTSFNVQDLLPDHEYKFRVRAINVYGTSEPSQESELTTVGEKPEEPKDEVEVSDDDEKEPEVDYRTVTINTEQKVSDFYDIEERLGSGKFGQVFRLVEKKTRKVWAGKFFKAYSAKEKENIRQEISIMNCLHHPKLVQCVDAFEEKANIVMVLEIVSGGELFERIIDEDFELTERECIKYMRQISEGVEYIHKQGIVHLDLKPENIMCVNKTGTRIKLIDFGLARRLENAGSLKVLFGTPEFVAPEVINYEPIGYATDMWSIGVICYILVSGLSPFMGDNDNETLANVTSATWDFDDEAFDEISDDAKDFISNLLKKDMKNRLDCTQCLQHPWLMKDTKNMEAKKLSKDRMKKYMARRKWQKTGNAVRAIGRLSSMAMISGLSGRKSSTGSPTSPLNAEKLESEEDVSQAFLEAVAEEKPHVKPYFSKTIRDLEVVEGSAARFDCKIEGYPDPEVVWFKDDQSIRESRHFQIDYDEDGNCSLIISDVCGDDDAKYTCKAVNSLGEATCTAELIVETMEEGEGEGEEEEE

For this assay, the target named is Myosin light chain kinase, smooth muscle (Homo sapiens, UniProt Q15746). Kind of assay: Inhibition of Myosin light chain kinase 1 (MLCK1).

SMILES strings stand for the structures. pIC50: −log10 of the molar value.

As for `COC(=O)[C@]1(O)C[C@H]2O[C@]1(C)n1c3ccccc3c3c4c(c5c6ccccc6n2c5c31)C(=O)NC4`, the pIC50 – broadly, the IC50 on a negative log10 scale, so that one unit is a factor of ten – was 7.60.
